# The whole screen tested about 220,000 compounds, of which about 2,300 (1%) were called active. All entries are inconclusive by the source's own rule. Clear calls are listed elsewhere. Calls follow the shape of the dose curve; as a rule, active = well fitted inhibition curve with a large enough effect; inconclusive = small, poorly fitted or top-dose-only effect, or effect the other way; inactive = no such curve, though single readings can be large or run the other way.
# The chains behind the UniProt entries cited, without tags or fusion partners. Where a name states a change or a piece, a line headed by the entry shows the natural chain unless it says otherwise.
# UniProt Q6W5P4: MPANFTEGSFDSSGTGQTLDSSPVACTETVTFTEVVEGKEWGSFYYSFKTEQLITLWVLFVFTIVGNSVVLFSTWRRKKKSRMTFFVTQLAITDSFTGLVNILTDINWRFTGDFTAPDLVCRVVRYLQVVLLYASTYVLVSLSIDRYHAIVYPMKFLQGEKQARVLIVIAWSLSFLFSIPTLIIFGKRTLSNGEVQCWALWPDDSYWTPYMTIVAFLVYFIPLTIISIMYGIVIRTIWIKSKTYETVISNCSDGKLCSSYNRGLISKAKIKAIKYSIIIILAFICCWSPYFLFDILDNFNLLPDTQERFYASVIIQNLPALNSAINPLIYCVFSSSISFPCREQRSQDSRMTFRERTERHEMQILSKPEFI
# Molecular target: Neuropeptide S receptor (Homo sapiens) (UniProt Q6W5P4)
# Test: qHTS Assay for Antagonists of the Neuropeptide S Receptor: cAMP Signal Transduction; also: nearly all actives have a fitted effect of over 50% in size
# Conditions: CHO-NPSR cells, cAMP TR-FRET, antagonist mode
# Potency is read from the fitted curve at half-maximal effect.
row,Structure (SMILES),Potency
1,O=c1c2cc([N+](=O)[O-])ccc2[nH]c2c([N+](=O)[O-])cc([N+](=O)[O-])cc12,inconclusive: 3.98 µM
2,CCOP(=O)(Nc1ccccc1)OCC,inconclusive: 5.01 µM
3,Cc1c2non([O-])c-2c(C)[n+](=O)[n+]1[O-],inconclusive: 25.1 µM
4,CC1CCN(C(=O)Oc2c(Cl)cc(Cl)c3cccnc23)CC1,inconclusive: 10 µM
5,CCc1nc2c(n1)c1c(non1O)c1c2no[n+]1[O-],inconclusive: 10 µM
6,CCC(C)N(CC(C)C)C(=S)SC(NC(C)=O)C(Cl)(Cl)Cl (configuration not stated),inconclusive: 12.6 µM
7,CN(C(=O)Cc1ccccc1)[C@@H]1CC[C@]2(CCCO2)C[C@H]1N1CCCC1,inconclusive: 10 µM
